Experimental data: ChEMBL document CHEMBL1146036, “Structural determinants of opioid activity in derivatives of 14-aminomorphinones: effect of substitution in the aromatic ring of cinnamoylaminomorphinones and codeinones” (J Med Chem, 2006)

Amino acid sequences for entries named in this document (tags omitted). A change or cut given only in a name is not applied to a line headed by its entry.
UniProt P41143, whole entry, looked up: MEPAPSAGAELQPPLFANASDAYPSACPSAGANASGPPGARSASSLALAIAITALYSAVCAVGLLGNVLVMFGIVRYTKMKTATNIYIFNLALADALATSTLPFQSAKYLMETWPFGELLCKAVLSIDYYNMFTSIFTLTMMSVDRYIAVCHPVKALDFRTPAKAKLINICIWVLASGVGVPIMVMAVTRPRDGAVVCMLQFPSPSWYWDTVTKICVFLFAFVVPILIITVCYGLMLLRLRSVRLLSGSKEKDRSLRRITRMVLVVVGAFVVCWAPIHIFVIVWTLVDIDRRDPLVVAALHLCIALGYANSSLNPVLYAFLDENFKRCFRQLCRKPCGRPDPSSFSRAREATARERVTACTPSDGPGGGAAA
UniProt P41145: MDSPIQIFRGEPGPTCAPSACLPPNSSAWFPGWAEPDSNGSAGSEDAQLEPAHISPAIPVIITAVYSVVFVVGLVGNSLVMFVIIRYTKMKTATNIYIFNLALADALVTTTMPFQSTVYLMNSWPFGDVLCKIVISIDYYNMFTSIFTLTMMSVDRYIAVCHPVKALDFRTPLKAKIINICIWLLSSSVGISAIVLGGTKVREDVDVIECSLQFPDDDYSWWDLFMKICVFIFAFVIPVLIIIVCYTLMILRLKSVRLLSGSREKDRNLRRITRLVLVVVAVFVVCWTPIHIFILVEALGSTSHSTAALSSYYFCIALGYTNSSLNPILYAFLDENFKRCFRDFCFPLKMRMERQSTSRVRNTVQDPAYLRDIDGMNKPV
UniProt P35372, whole entry, looked up: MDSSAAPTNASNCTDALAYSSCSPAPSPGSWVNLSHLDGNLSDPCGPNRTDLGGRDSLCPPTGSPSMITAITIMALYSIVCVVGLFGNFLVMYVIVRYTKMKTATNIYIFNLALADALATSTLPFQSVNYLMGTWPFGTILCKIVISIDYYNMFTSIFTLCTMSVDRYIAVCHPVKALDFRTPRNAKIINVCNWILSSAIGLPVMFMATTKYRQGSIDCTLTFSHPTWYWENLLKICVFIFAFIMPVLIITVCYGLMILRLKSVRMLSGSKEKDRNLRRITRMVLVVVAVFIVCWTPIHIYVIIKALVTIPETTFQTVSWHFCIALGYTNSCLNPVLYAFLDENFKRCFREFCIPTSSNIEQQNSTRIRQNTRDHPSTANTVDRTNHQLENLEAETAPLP

How the values were obtained:
[1] = molecular target: Delta-type opioid receptor (Homo sapiens, UniProt P41143); test: Displacement of [3H]Cl-DPDPE from human recombinant DOR expressed in CHO cells; assay type: cell-based
[2] = molecular target: Kappa-type opioid receptor (Homo sapiens, UniProt P41145); test: Displacement of [3H]U-69593 from human recombinant KOR expressed in CHO cells
Mu-type opioid receptor = Mu-type opioid receptor (Homo sapiens, UniProt P35372); test: Displacement of [3H]DAMGO from human recombinant MOR expressed in CHO cells

**Q.** Which results are given for `CN1CC[C@]23c4c5cccc4O[C@H]2C(=O)CC[C@@]3(NC(=O)/C=C/c2ccccc2Cl)[C@H]1C5`?
**A.** Ki [1]: 0.08 nM; Ki [2]: 0.54 nM; Ki (Mu-type opioid receptor): 0.15 nM
